The list shows a part of the results, in another mix than the full data.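 The test compound was applied at a single concentration to cells in 96-well plates for 48 hours, and percent growth was recorded.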 Calls of active or inactive are those of the source. How the source made its calls: active means growth percent below 10; inactive means the rest.
Experiments:
Assay in all cases: NCI-60 one-dose screen, 48 h (100 = growth as untreated, 0 = no growth, -100 = all killed)
Settings in all cases: 10 µM
[1] = test system: DU-145 prostate
[2] = test system: K-562 leukemia
[3] = test system: MALME-3M melanoma
[4] = test system: MDA-MB-231 breast
[5] = test system: RXF 393 renal
[6] = test system: SF-268 CNS
[7] = test system: SF-539 CNS
[8] = test system: UACC-257 melanoma
[9] = test system: M14 melanoma
[10] = test system: HCT-15 colon
[11] = test system: HT29 colon
[12] = test system: SNB-75 CNS
[13] = test system: SNB-19 CNS
[14] = test system: U251 CNS
[15] = test system: PC-3 prostate
[16] = test system: SK-MEL-5 melanoma
[17] = test system: UACC-62 melanoma
[18] = test system: LOX IMVI melanoma
[19] = test system: SK-MEL-28 melanoma
[20] = test system: SF-295 CNS

Row | SMILES | growth [1] | growth [2] | growth [3] | growth [4] | growth [5] | growth [6] | growth [7] | growth [8] | growth [9] | growth [10] | growth [11] | growth [12] | growth [13] | growth [14] | growth [15] | growth [16] | growth [17] | growth [18] | growth [19] | growth [20]
1 | Cc1ccc(C(=O)N(CCCl)CCCl)cc1 | inactive: 110% | inactive: 117% | inactive: 95.2% | inactive: 102% | inactive: 94.1% | inactive: 110% | inactive: 104% | inactive: 108% | inactive: 114% | inactive: 94% | inactive: 102% | inactive: 82.4% | inactive: 100% | inactive: 98.2% | inactive: 97.7% | inactive: 99.1% | inactive: 101% | inactive: 92.9% | inactive: 97% | –
2 | O=C(O)CCc1ccc(CSCCCl)cc1 | inactive: 105% | inactive: 97.2% | inactive: 102% | inactive: 98.6% | inactive: 114% | inactive: 101% | inactive: 98% | inactive: 116% | inactive: 105% | inactive: 105% | inactive: 107% | inactive: 101% | inactive: 99.4% | inactive: 108% | inactive: 99% | inactive: 101% | inactive: 93% | inactive: 103% | inactive: 109% | inactive: 100%
3 | Fc1cccc(CBr)c1 | inactive: 107% | inactive: 97% | – | inactive: 111% | inactive: 113% | inactive: 92.1% | inactive: 103% | inactive: 116% | inactive: 102% | inactive: 102% | inactive: 100% | inactive: 103% | inactive: 113% | inactive: 106% | inactive: 104% | inactive: 107% | inactive: 96% | inactive: 102% | inactive: 112% | inactive: 97.9%
4 | Fc1ccc(CCN(CCCl)CCCl)cc1 | inactive: 112% | inactive: 110% | inactive: 98.6% | inactive: 110% | inactive: 100% | inactive: 108% | inactive: 101% | inactive: 92.9% | inactive: 101% | inactive: 99.3% | inactive: 98.1% | inactive: 70.5% | inactive: 107% | inactive: 103% | inactive: 95% | inactive: 102% | inactive: 100% | inactive: 102% | inactive: 106% | –
5 | Cc1ccc(CN(CCCl)CCCl)cc1C | inactive: 106% | inactive: 100% | inactive: 85.9% | inactive: 105% | inactive: 91.7% | inactive: 109% | inactive: 108% | inactive: 102% | inactive: 108% | inactive: 98.1% | inactive: 92.6% | inactive: 72% | inactive: 105% | inactive: 94.7% | inactive: 93.1% | inactive: 98.1% | inactive: 98% | inactive: 93.7% | inactive: 101% | –
6 | Cc1ccccc1CN(CCCl)CCCl | inactive: 107% | – | inactive: 104% | inactive: 119% | inactive: 98.8% | – | inactive: 102% | inactive: 95.4% | inactive: 95.1% | inactive: 102% | inactive: 94.6% | inactive: 90.4% | inactive: 101% | inactive: 93.3% | inactive: 95.1% | inactive: 81.3% | inactive: 97.4% | inactive: 79.9% | inactive: 109% | inactive: 111%
7 | O=Cc1ccc(N(CCCl)CCCl)cc1Cl | inactive: 88.6% | inactive: 72.1% | inactive: 100% | inactive: 104% | inactive: 63.7% | inactive: 97.2% | inactive: 87.7% | active: -46.4% | inactive: 102% | inactive: 86.1% | inactive: 72.9% | inactive: 80.6% | inactive: 97.4% | inactive: 46.5% | inactive: 67.5% | inactive: 70% | active: -4.06% | inactive: 93.6% | inactive: 88.8% | –
8 | Cc1cccc(C(=O)N(CCCl)CCCl)c1 | inactive: 115% | inactive: 106% | inactive: 98.1% | inactive: 119% | inactive: 101% | inactive: 110% | inactive: 92.7% | inactive: 117% | inactive: 104% | inactive: 91.2% | inactive: 100% | inactive: 86.5% | inactive: 104% | inactive: 98.9% | inactive: 91.8% | inactive: 99% | inactive: 103% | inactive: 103% | inactive: 113% | –
9 | O=C(O)Cc1c[nH]c2ccc(N(CCCl)CCCl)cc12 | inactive: 107% | inactive: 105% | inactive: 121% | inactive: 93.8% | inactive: 109% | inactive: 111% | inactive: 106% | inactive: 106% | inactive: 105% | inactive: 98.6% | inactive: 101% | inactive: 101% | inactive: 96.9% | inactive: 107% | inactive: 86.5% | inactive: 101% | inactive: 86.3% | inactive: 91.6% | inactive: 116% | inactive: 89.6%
10 | COc1cc(CN(CCCl)CCCl)cc(OC)c1 | inactive: 105% | inactive: 85.2% | inactive: 95% | inactive: 109% | inactive: 100% | inactive: 98.4% | inactive: 101% | inactive: 85.2% | inactive: 97.3% | inactive: 96% | inactive: 100% | inactive: 73.1% | inactive: 105% | inactive: 97.1% | inactive: 97.2% | inactive: 99.2% | inactive: 97.5% | inactive: 96.3% | inactive: 95.4% | –
